Source: publication PMC6558757 (JRSM Cardiovascular Disease, 2019)

The chains behind the UniProt entries cited, without tags or fusion partners. Where a name states a change or a piece, a line headed by the entry shows the natural chain unless it says otherwise.
UniProt Q12809: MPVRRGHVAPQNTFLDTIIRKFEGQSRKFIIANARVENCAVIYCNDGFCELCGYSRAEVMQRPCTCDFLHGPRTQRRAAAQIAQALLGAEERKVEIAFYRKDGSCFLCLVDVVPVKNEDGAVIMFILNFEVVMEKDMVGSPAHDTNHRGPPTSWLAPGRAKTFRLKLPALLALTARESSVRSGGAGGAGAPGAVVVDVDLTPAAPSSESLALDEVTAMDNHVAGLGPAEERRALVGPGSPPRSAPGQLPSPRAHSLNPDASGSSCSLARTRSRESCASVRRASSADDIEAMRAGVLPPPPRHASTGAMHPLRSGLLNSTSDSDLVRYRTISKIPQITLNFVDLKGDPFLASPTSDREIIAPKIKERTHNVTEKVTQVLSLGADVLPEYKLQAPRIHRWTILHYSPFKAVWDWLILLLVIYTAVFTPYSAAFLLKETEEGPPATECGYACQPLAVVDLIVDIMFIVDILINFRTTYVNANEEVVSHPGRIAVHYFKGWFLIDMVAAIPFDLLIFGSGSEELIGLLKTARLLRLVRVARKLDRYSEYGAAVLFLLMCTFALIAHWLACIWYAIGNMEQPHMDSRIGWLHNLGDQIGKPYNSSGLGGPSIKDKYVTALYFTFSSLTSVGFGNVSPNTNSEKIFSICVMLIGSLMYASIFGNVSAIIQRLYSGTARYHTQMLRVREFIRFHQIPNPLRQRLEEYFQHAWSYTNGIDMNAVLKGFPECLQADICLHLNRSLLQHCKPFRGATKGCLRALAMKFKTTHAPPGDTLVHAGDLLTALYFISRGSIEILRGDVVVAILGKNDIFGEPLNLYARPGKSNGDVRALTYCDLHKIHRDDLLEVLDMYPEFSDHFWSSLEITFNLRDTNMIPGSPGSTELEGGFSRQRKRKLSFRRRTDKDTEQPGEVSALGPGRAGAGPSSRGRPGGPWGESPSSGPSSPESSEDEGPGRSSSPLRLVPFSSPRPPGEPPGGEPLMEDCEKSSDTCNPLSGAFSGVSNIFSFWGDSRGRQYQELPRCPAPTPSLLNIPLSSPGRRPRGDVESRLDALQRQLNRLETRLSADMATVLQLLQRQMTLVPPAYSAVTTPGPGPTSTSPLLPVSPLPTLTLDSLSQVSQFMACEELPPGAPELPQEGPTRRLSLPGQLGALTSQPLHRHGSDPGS

Legend:
[1] = tested on: IKs current; details: cited from earlier work
[2] = target: hERG channel (CHO-hERG cells) (Homo sapiens, UniProt Q12809); assay: QPatch whole-cell patch clamp, hERG tail current; details: at highest test concentration 30,000 nM; Mean ± SEM

SMILES: O=C(Cc1ccc(C(F)(F)F)cc1C(F)(F)F)N[C@@H]1N=C(c2ccccc2)c2ccccc2N(CC(F)(F)F)C1=O [L-673, (R)-2-(2,4-trifluoromethyl)-N-[2-oxo-5-phenyl-1-(2,2,2-trifluoroethyl)-2,3-dihydro-1H-benzo[e][1,4]diazepin-3-yl]acetamide]
- potency relative to JNJ303 or HMR-1556 on IKs current inhibition [1]: 10 fold
- % inhibition hERG [2]: 27 ± 3%@30,000 [4]
